Values of other authors as cited in US20200352950A1, “Novel method of treating dystonia” (KOREA ADVANCED INSTITUTE OF SCIENCE AND TECHNOLOGY, priority 2017, published 2020).

Amino acid sequences for entries named in this document (tags omitted).
UniProt P28223, whole entry: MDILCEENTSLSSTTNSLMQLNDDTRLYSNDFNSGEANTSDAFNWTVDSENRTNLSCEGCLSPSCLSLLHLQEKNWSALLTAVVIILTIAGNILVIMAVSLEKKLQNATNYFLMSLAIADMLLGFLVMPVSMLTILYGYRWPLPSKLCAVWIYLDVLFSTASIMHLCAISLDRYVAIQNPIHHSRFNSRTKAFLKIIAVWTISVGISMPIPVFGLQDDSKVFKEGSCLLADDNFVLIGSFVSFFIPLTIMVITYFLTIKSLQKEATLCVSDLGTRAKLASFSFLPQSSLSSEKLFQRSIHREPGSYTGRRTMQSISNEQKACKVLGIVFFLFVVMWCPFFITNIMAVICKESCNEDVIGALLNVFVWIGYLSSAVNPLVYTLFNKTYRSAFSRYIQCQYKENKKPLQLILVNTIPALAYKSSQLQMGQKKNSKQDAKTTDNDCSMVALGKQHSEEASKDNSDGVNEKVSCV

Target: 5-HT2A receptor (Homo sapiens, UniProt P28223)
Details: cited from earlier work

## O=S1(=O)N(CCN2CC=C(c3c[nH]c4cc(F)ccc34)CC2)c2cccc3c2N1CCC3 [LY-367265]
  Ki: 0.81 nM
